The source of these data is patent US20230138177A1 (priority 2020, published 2023).

Protein sequences, listed by entry. Tags and fused reporters are not part of them.
UniProt Q9Y463, whole entry: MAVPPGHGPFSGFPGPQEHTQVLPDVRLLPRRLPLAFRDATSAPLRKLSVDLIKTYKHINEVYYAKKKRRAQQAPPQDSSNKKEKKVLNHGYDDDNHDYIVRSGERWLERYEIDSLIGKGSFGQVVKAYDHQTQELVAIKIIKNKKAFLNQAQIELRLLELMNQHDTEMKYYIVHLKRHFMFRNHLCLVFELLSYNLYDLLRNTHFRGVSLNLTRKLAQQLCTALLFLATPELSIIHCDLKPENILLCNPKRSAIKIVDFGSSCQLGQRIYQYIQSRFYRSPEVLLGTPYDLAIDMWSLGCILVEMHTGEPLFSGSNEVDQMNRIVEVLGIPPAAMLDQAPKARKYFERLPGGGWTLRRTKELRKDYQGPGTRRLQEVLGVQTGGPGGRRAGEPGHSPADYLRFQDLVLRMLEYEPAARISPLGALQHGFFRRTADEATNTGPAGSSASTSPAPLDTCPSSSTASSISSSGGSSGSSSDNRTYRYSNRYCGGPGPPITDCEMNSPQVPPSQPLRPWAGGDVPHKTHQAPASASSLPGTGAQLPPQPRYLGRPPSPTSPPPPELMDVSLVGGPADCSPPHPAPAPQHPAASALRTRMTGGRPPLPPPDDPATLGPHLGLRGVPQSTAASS

In test [1] the target is T1, DYRK1B (Homo sapiens, UniProt Q9Y463). Format: biochemical. On the set-up: expressed in transfected cells; host or cells: HEK293T or U87 cells; immunoprecipitate used in vitro. The conditions noted are these: FLAG-DYRK1B from cells treated with harmine 10 μM or CX-4945 1 μM for 8 hours.
Test [2] addresses T1, DYRK1B. The test is classed as cell-based. Further details: expressed in transfected cells; host or cells: glioma cells (U87). The settings on record: glioma cells expressing wild type DYRK1B; harmine 10 μM, CX-4945 1 μM for 8 hours; DMOG 1 mM, CoCl2 150 μM for 12 hours.

As for `O=C(O)c1ccc2c(c1)nc(Nc1cccc(Cl)c1)c1ccncc12` [CX-4945], the “phosphorylation of the ID2-T27 substrate” value in test [1] is given as “severely impairing”. In test [2], the “prolyl hydroxylation of DYRK1B” value is on record as “failed to perturb” and the “tyrosine autophosphorylation of DYRK1B” value is “severely impairing”.
